## scFv variants of Ab-95 (light chain) against a SARS-CoV-2 spike peptide

Data: MIT Lincoln Laboratory AlphaSeq set, Engelhart et al. 2022, doi:10.1038/s41597-022-01779-4, as distributed in FLAb.

The target is the same throughout: PDVDLGDISGINAS, from the HR2 region of SARS-CoV-2 spike.

Parent scFv Ab-95: VH joined to VL by a 15-residue (Gly4Ser)3 linker. Changes lie in the light chain CDRs alone.
VH: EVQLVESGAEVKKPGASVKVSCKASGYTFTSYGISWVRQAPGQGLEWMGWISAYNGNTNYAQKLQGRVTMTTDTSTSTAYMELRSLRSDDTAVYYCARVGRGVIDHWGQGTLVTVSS
VL: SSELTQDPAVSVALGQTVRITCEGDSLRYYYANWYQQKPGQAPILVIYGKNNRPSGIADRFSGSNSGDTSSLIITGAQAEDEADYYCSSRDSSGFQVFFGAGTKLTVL

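The library (AAYL52) carries one to three amino acid substitutions per variant, with no insertions or deletions. Affinity was read by AlphaSeq, a pooled yeast mating assay with surface-displayed partners. Mating (16 h, 30 °C) was followed by selection of diploids and sequencing of their barcodes. A regression on co-assayed BCL2-family reference pairs converts the normalised counts of each replicate to an apparent Kd. Mating was done three times.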

Changes read parent residue, position, new residue, counted from the first residue of the VL shown. All variants listed here change N51 of the VL, counted from its first residue. Values are apparent Kd, the geometric mean of the replicates that gave a signal; lower means stronger binding. Where no diploid with the target was found in any replicate, the entry reads "nd": below detection, most likely a poor binder, though not proof of it.

With N51F N52F S88Q the result was 57 µM (2 of 3 replicates; controls 7 of 9). For N51H, the assay gave 3.0 µM (2 of 3 replicates; controls 1 of 9). With N51A N52V R90S the result was 5.2 µM (1 of 3 replicates; controls 2 of 9). With G49L N51A F95T the result was 200 nM (1 of 3 replicates; controls 0 of 9). The variant E23L N51F S88P gave nd (0 of 3 replicates; controls 4 of 9). The variant N51A P54Y gave 1.6 µM (3 of 3 replicates; controls 6 of 9). For A32Y N51H S88V, the assay gave nd (0 of 3 replicates; controls 0 of 9). With N51S S55H S88G the result was 2.1 µM (3 of 3 replicates; controls 1 of 9).

The variant G24M N51Q R90G showed 36 µM (2 of 3 replicates; controls 2 of 9). With N33I G49V N51T the result was 1.3 µM (2 of 3 replicates; controls 4 of 9). The variant R28F G49H N51C showed nd (0 of 3 replicates; controls 2 of 9). The variant E23V N51H showed 410 nM (3 of 3 replicates; controls 2 of 9). The variant N51Q P54Q S92I showed 1.5 µM (3 of 3 replicates; controls 5 of 9). The variant E23N A32D N51D gave 220 nM (3 of 3 replicates; controls 6 of 9). The variant E23D N51H S89N showed 66 µM (2 of 3 replicates; controls 4 of 9). The variant N51Y S55H S89F gave 2.4 µM (2 of 3 replicates; controls 2 of 9).

The variant N51S R53Y G94Y showed nd (0 of 3 replicates; controls 3 of 9). For N51P S92H V97H, the assay gave nd (0 of 3 replicates; controls 0 of 9). The variant N51Q S89I G94C gave 210 nM (3 of 3 replicates; controls 4 of 9). For N51K R53M S55D, the assay gave 9.4 µM (2 of 3 replicates; controls 4 of 9). For N33K N51Y G94A, the assay gave nd (0 of 3 replicates; controls 0 of 9). The variant Y29L N33A N51H showed 5.0 µM (2 of 3 replicates; controls 1 of 9). For N51A S93D V97S, the assay gave 860 nM (2 of 3 replicates; controls 2 of 9). For S26H N51A S92F, the assay gave 3.9 µM (3 of 3 replicates; controls 3 of 9).

The variant N51E S92D showed 3.2 µM (3 of 3 replicates; controls 5 of 9). The variant E23R Y29Q N51D gave 38 nM (3 of 3 replicates; controls 0 of 9). The variant Y31H N51E D91E showed 130 nM (3 of 3 replicates; controls 3 of 9). With N51M P54L S93P the result was 7.3 µM (1 of 3 replicates; controls 4 of 9). With Y30K N51G F95K the result was nd (0 of 3 replicates; controls 1 of 9). With N51W S89T S93C the result was 2.9 µM (1 of 3 replicates; controls 1 of 9). For S26Y N51C G94I, the assay gave 250 nM (1 of 3 replicates; controls 2 of 9). With N51G N52S R53N the result was 6.5 µM (3 of 3 replicates; controls 1 of 9).

The variant E23K R28S N51Y gave 700 nM (3 of 3 replicates; controls 5 of 9). With S26V Y30W N51Q the result was 4.4 µM (2 of 3 replicates; controls 3 of 9). The variant D25S N51G P54L showed 2.5 µM (3 of 3 replicates; controls 2 of 9). For D25L N51G S93M, the assay gave 450 nM (3 of 3 replicates; controls 4 of 9). With G24E S26C N51R the result was 4.5 µM (2 of 3 replicates; controls 0 of 9). The variant S26E A32N N51K gave 31 µM (1 of 3 replicates; controls 3 of 9). For R28H Y29I N51A, the assay gave 2.2 µM (3 of 3 replicates; controls 3 of 9). With Y31R N51S P54S the result was 4.8 µM (3 of 3 replicates; controls 6 of 9).

With N51M the result was 830 nM (3 of 3 replicates; controls 3 of 9).

Excerpt, the final 5 entries:

G24E S26C N51R: 4.5 µM (2 of 3 replicates; controls 0 of 9).
S26E A32N N51K: 31 µM (1 of 3 replicates; controls 3 of 9).
R28H Y29I N51A: 2.2 µM (3 of 3 replicates; controls 3 of 9).
Y31R N51S P54S: 4.8 µM (3 of 3 replicates; controls 6 of 9).
N51M: 830 nM (3 of 3 replicates; controls 3 of 9).

For reference, the parent read 200 nM as the reference entry and 180 nM as a member of this library. Background: pairings of library AAYL52 with three empty control strains gave a value in 28% of cases (median 8.2 µM, 5th percentile 800 nM). Values in that range, when seen in few replicates, are hard to tell from nonspecific mating. For each scFv, signals with the empty controls are counted beside the result.